Measured values as given in paper PMC6342991, “Effects of point mutations in the binding pocket of the mouse major urinary protein MUP20 on ligand affinity and specificity” (Scientific Reports, 2019).
Where a chain is given by its changes, count along the chain named.

Legend:
wild type MUP20 = molecular target: T1, wild type MUP20 (Mus musculus, UniProt Q5FW60); experiment: Fluorescence competitive binding assay with 1-NPN, wild type MUP20; settings: 1-NPN displacement, 50 mM Tris-HCl pH 7.4, 25 °C; read-out: Measured Kd, WT
T1 construct: 6xHis (N); made in house; host or cells: E. coli BL21(DE3), pET5b
T1 sequence (Q5FW60 20-181): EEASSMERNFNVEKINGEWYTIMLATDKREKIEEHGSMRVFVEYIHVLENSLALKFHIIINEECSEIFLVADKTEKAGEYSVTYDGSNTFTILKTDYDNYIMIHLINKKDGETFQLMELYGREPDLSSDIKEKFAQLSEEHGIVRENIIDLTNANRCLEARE
Experimental: (§1) Fluorescence competitive binding assays: Fluorescence-competitive binding assays were carried out using the fluorescent probe N-phenyl-1-naphthylamine (1-NPN), as described[39],[40]. A binding curve was constructed and the dissociation constant of the probe (KD) was calculated.
(§2) The binding analyses assumed that the protein had 100% activity and that the stoichiometry of binding was 1:1 at saturation. The affinity of various volatile ligands was measured in competitive binding assays.
(§3) The change in fluorescence was recorded after adding increasing concentrations of ligand. Competitor concentrations causing a decay of fluorescence to half-maximal intensity were determined as IC50 and the dissociation constant for the test ligands (expressed as Kd) was calculated using the following formula:1 Kd=[IC50]/1+[Probe]/KD where [Probe] is the free concentration of the fluorescent probe and KD is the dissociation constant of the complex Protein/Probe.

MUP20Y103D = molecular target: T2, MUP20Y103D (Mus musculus, UniProt Q5FW60, Y103D); experiment: Fluorescence competitive binding assay with 1-NPN, MUP20 Y103D; settings: 1-NPN displacement, 50 mM Tris-HCl pH 7.4, 25 °C; read-out: Measured Kd, Y103D
T2 construct: 6xHis (N); made in house; host or cells: E. coli BL21(DE3), pET5b
T2 sequence (Q5FW60 20-181 Y103D): T1 sequence (Q5FW60 20-181) with Y84D
Experimental: as §1, §2, §3

MUP20Y103R = molecular target: T3, MUP20Y103R (Mus musculus, UniProt Q5FW60, Y103R); experiment: Fluorescence competitive binding assay with 1-NPN, MUP20 Y103R; settings: 1-NPN displacement, 50 mM Tris-HCl pH 7.4, 25 °C; read-out: Measured Kd, Y103R
T3 construct: 6xHis (N); made in house; host or cells: E. coli BL21(DE3), pET5b
T3 sequence (Q5FW60 20-181 Y103R): T1 sequence (Q5FW60 20-181) with Y84R
Experimental: as §1, §2, §3

MUP20N107L = molecular target: T4, MUP20N107L (Mus musculus, UniProt Q5FW60, N107L); experiment: Fluorescence competitive binding assay with 1-NPN, MUP20 N107L; settings: 1-NPN displacement, 50 mM Tris-HCl pH 7.4, 25 °C; read-out: Measured Kd, N107L
T4 construct: 6xHis (N); made in house; host or cells: E. coli BL21(DE3), pET5b
T4 sequence (Q5FW60 20-181 N107L): T1 sequence (Q5FW60 20-181) with N88L
Experimental: as §1, §2, §3

MUP20L124V = molecular target: T5, MUP20L124V (Mus musculus, UniProt Q5FW60, L124V); experiment: Fluorescence competitive binding assay with 1-NPN, MUP20 L124V; settings: 1-NPN displacement, 50 mM Tris-HCl pH 7.4, 25 °C; read-out: Measured Kd, L124V
T5 construct: 6xHis (N); made in house; host or cells: E. coli BL21(DE3), pET5b
T5 sequence (Q5FW60 20-181 L124V): T1 sequence (Q5FW60 20-181) with L105V
Experimental: as §1, §2, §3

L-Adrenaline
Kd (wild type MUP20): 5.31 µM | Kd (MUP20Y103D): 3.34 µM | Kd (MUP20Y103R): 7.06 µM | Kd (MUP20N107L): 0.9 µM | Kd (MUP20L124V): 1.33 µM
